Here are results for two compounds from patent US7195897B2, “Feedback-resistant homoserine transsuccinylases having a modified c-terminus” (priority 2002, dated 2007).

Chains of the proteins cited; added tags and fusions are not shown.
UniProt P07623, whole entry, looked up, stated change not applied: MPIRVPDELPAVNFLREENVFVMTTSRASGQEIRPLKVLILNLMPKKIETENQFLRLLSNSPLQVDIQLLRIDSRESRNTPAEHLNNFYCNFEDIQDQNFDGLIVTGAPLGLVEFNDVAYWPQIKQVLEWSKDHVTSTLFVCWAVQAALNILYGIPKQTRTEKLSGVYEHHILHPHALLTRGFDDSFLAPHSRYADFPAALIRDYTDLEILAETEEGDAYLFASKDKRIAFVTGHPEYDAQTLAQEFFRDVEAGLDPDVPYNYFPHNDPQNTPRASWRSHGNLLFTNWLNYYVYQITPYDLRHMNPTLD

In assay [1] the target is T1, E. coli homoserine transsuccinylase (MetA) variant of plasmid pBaBmetAext2, amino acids from 297 onwards SerTyrIleHisGlnTyrLeuLeuValAsnAsnSerThrGluLeuTrpMetHisT (Escherichia coli, UniProt P07623, DELINS297-309SYIHQYLLVNNSTELWMHTRLIKRPHCDEWQGGA). Description: Homoserine transsuccinylase activity in cell extract, inhibition by L-methionine (decrease in extinction at 232 nm). To be noted: activity without L-methionine = 100%, pH 7.6, 1 mM homoserine, 0.1 mM succinyl-CoA.

The target of assay [2] is E. coli homoserine transsuccinylase (MetA) variant of plasmid pBaBmetAext, amino acids from 297 onwards SerTyrIleHisHisTyrLeuLeuValAsnAsnSerThrGluLeuTrpMetHisTh (Escherichia coli, UniProt P07623, DELINS297-309SYIHHYLLVNNSTELWMHTRLIKRPHCDEWQGGA). Briefly: Homoserine transsuccinylase activity in cell extract, inhibition by SAM (DTNB, absorption at 412 nm). Particulars: activity without SAM = 100%, pH 7.5, 3 mM homoserine, 0.3 mM succinyl-CoA.

Assay [3] has as its target T1, E. coli homoserine transsuccinylase (MetA) variant of plasmid pBaBmetAext2, amino acids from 297 onwards SerTyrIleHisGlnTyrLeuLeuValAsnAsnSerThrGluLeuTrpMetHisT. The description is as above. To be noted: activity without SAM = 100%, pH 7.5, 3 mM homoserine, 0.3 mM succinyl-CoA.

On to `CSCC[C@H](N)C(=O)O` [L-methionine], for which the “Activity (%) in the presence of 1 mM L-methionine” value in assay [1] was determined as 90%.
Take `C[S+](CC[C@H](N)C(=O)[O-])C[C@H]1O[C@@H](n2cnc3c(N)ncnc32)[C@H](O)[C@@H]1O` (stereo partly drawn) [SAM, S-Adenosylmethionine]: the “Activity (%) in the presence of 1 mM SAM” value in assay [2] came out at 75%; in assay [3], 99%.
